## Binding of CDR-mutated scFvs to a peptide of the spike HR2 region

Target: peptide PDVDLGDISGINAS, taken from heptad repeat 2 (HR2) of SARS-CoV-2 spike.

The variants keep the heavy chain, the linker and the frameworks of Ab-14 (scFv order VH, a 15-residue (Gly4Ser)3 linker, VL).
VH: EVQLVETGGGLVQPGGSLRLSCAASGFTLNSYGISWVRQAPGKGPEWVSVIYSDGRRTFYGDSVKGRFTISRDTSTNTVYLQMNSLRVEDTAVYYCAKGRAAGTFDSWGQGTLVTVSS
VL: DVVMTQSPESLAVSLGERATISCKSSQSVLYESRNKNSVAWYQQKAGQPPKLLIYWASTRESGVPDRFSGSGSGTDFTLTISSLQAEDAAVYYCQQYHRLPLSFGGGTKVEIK

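Phage display of a naive human antibody library on the peptide gave the parent. These sequences belong to a second round, designed from the earlier measurements on random variants of the parent. Group labels follow the data file (En: ensemble of fine-tuned language models; GP: Gaussian process model; HC: hill climbing; Gen: genetic algorithm; Gibbs: Gibbs sampling; a sequence that several methods proposed may carry one label only). AlphaSeq pools MATa yeast showing the antibodies with MATalpha yeast showing the peptide. Mating (16 h, 30 °C) was followed by selection of diploids and sequencing of their barcodes. A regression on co-assayed BCL2-family reference pairs converts the normalised counts of each replicate to an apparent Kd. Each pool was mated in six replicate cultures.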

The parent's light chain CDRs are KSSQSVLYESRNKNSVA, WASTRES, QQYHRLPLS; each variant's own CDRs replace them letter for letter.
This list holds designs with more than six substitutions.
Kd is apparent (estimated from mating counts) and averaged on the log scale over replicates with a signal. Smaller is tighter.
"no signal" means that the variant was in the library but no mating with the target was seen in any replicate; the authors take this as a sign of poor binding, and no number exists.

| CDR-L1 | CDR-L2 | CDR-L3 | group | Kd (apparent) | replicates with signal | control signals |
|---|---|---|---|---|---|---|
| IISQLMNLGQFAINSVA | QATIRNS | QQYDRLPLA | En_Gen | no signal | 0 of 6 | 1 of 18 |
| NIRGMVNGKGTTTKNIA | DAEFRAG | QQYSRLPLS | En_Gibbs | 380 pM | 6 of 6 | 0 of 18 |
| KLSQVTHSESRNKNSIA | EMVTREV | QQYDRLPLV | En_HC | 13 nM | 6 of 6 | 0 of 18 |
| GILSQMDGPTAYKENIA | NETERLR | QQYQRLPLT | En_Gibbs | 6.0 nM | 6 of 6 | 1 of 18 |
| KVSEFTRGLMSRQDSIA | DNVTRNN | QQYDRLPLS | En_Gen | 79 nM | 6 of 6 | 1 of 18 |
| KLSMITGHMSVSKNNVA | EMETRAN | QQYDRLPLS | En_Gen | 6.8 nM | 6 of 6 | 0 of 18 |
| NIVGRAVMQDSGRNAIA | NAHARCT | QQYFRLPLT | En_Gibbs | 5.6 nM | 6 of 6 | 0 of 18 |
| VMQMQQDRMQDAAKNIA | GVDMRET | QQYFRLPFL | En_Gibbs | 1.3 nM | 6 of 6 | 0 of 18 |
| SMHPFDKAIGKGTQNIA | HVSVRAS | QQYARLPLV | En_Gibbs | 2.6 nM | 6 of 6 | 3 of 18 |
| KLSMLHDYESRNKNSVA | QASTRED | QQYHRLPLS | GP_Gibbs | 1.7 nM | 6 of 6 | 1 of 18 |
| MISQLYNMGQFAINSVA | QASQRNA | QQYDRLPLT | En_Gen | 11 nM | 6 of 6 | 2 of 18 |
| KFMISLEYQMAEQNAIA | HAEISTV | QQYSRLPID | En_Gibbs | no signal | 0 of 6 | 0 of 18 |
| KLTQYVGGESRNKSSLA | DNSTRES | QQYHRLPLS | En_HC | 830 nM | 5 of 6 | 0 of 18 |
| KVSEFMRGMMRQKDSIA | DNETRQS | QQYDHLPLS | En_Gen | 13 nM | 6 of 6 | 0 of 18 |
| KQQQSWDGQSRNKNSVA | HASKRES | QQYHRLPLS | GP_Gibbs | 64 nM | 6 of 6 | 2 of 18 |
| MISQLFMYGSRNYNSVA | QASTREN | QQYDRLPLI | En_HC | 5.7 nM | 6 of 6 | 0 of 18 |
| KLSMLGLYGQRNKNSVA | DASTRED | QQYHRLPLS | GP_Gibbs | 370 pM | 6 of 6 | 0 of 18 |
| KLSQKWLYESRNKNNVA | NASCREQ | QQYHRLPLS | GP_Gibbs | 600 pM | 6 of 6 | 2 of 18 |
| KVSQSKLYESRQFNSVA | HASQREL | QQYHRLPLS | GP_Gibbs | 4.0 nM | 6 of 6 | 1 of 18 |
| MLDMNLSYGDNLQNRIA | EANHLET | QQYAHLPLG | En_Gibbs | 24 nM | 5 of 6 | 0 of 18 |
| IISYVDAYESRNKNSIA | DQSTRGS | QQYDRLPLS | En_HC | 4.3 nM | 6 of 6 | 1 of 18 |
| KVDQEVDGQSRNKNSVA | DASQREE | QQYHRLPLS | GP_Gibbs | 780 pM | 6 of 6 | 1 of 18 |
| TISQVMNTLTRNTNNVA | DLQNRED | QQYFRLPLS | En_Gen | no signal | 0 of 6 | 0 of 18 |
| KLSMITGHMHMSKNNVA | EMVTRVN | QQYDRLPLA | En_Gen | 61 nM | 6 of 6 | 1 of 18 |
| KISQMVRVGSTVSNSIA | EMVTRAN | QQYHRLPLS | En_Gen | 2.8 nM | 6 of 6 | 0 of 18 |
| NVGIEDPGQWYMWDSIA | DSSLRAE | QQYWRLPLM | En_Gibbs | 1.3 nM | 6 of 6 | 1 of 18 |
| HVELGVGGVQKYGSSVA | HASQRQE | QQYYQLPLT | En_Gibbs | 2.2 nM | 6 of 6 | 0 of 18 |
| HLNLEYMQMMKDHNSIA | ETEHKTP | QQYFRLPIS | En_Gibbs | 2.1 nM | 6 of 6 | 2 of 18 |
| KLSQSEEYESRQFNSVA | SASQRNL | QQYHRLPLS | GP_Gibbs | 2.5 nM | 6 of 6 | 2 of 18 |
| QLLMVTMQGTYNRNSVA | HAETRED | QSYHRLPLS | En_HC | 260 nM | 5 of 6 | 3 of 18 |
| KVSYSNPYETRNKNSVA | EASTREE | QQYHRLPLS | GP_Gibbs | 930 pM | 6 of 6 | 1 of 18 |
| KHSQSELYEERNDNSVA | QASQRES | QDYHRLPLS | GP_Gibbs | 19 nM | 6 of 6 | 1 of 18 |
| ALSDWEWAGEENINAIA | DRSALEW | QQYGRLPLS | En_Gibbs | 29 nM | 6 of 6 | 0 of 18 |
| KLMVFPTNAGMTQANIA | DASHSTD | QQYGRLPLM | En_Gibbs | 550 nM | 5 of 6 | 0 of 18 |
| KLRSVTGTEKVNGNNVA | EMETRER | QQYNRLPLS | En_Gen | 3.3 nM | 6 of 6 | 1 of 18 |
| QLEQLVFPMGKDWHSIA | NATTLLA | QQYYYLPLM | En_Gibbs | 420 nM | 5 of 6 | 0 of 18 |
| KFAGGLDYNTAHKSAIA | HADIRNV | QQYFRLPLD | En_Gibbs | 19 nM | 6 of 6 | 1 of 18 |
| KLSQHVNFFGHAINSVA | EMETREN | QQYDRLPLS | En_HC | 8.0 nM | 6 of 6 | 0 of 18 |
| NLNDSDMYMSQMTDNIA | QDTLRNE | QQYAKLPLS | En_Gibbs | 5.1 nM | 6 of 6 | 1 of 18 |
| QFFSRWGQLTEIRNAVA | DATEVAD | QQYMHLPLT | En_Gibbs | 11 nM | 6 of 6 | 1 of 18 |
| TISQMTTSFSQNINNVA | EVSTREK | QQYDRLPLS | En_Gen | 4.2 nM | 6 of 6 | 0 of 18 |
| MLGDVTRMESNKKNSIA | DMSTRES | QQYHRLPLS | En_HC | 720 pM | 6 of 6 | 2 of 18 |
| HMSMLTMMGSRHRNSVA | QMTTREN | QQYDRLPLM | En_Gen | 8.0 nM | 6 of 6 | 2 of 18 |
| SLFEKEREELSVEDNIA | DGTEHMD | QQYFRLPLL | En_Gibbs | no signal | 0 of 6 | 0 of 18 |
| TVKALLEMFAQDKHSVA | EAVERAS | QQYHRLPLG | En_Gibbs | 16 nM | 6 of 6 | 1 of 18 |
| QLEWLEINGQSVGNSIA | ARVQEQE | QQYFRLPLT | En_Gibbs | no signal | 0 of 6 | 0 of 18 |
| KLGQSAAMTSRNKNNVA | DLNERER | QQYHRLPLS | En_HC | 490 pM | 6 of 6 | 0 of 18 |
| MLSEVLHMLGVQKNSIA | DLVLRAN | QQYHRLPLG | En_Gen | no signal | 0 of 6 | 0 of 18 |
| RIDAYPPIQGNNIDSVA | ENAIRLD | QQYARLPLS | En_Gibbs | 40 nM | 6 of 6 | 1 of 18 |
| KAQNSNEYESRNKNSVA | NASQRED | QQYHRLPLS | GP_Gibbs | 870 pM | 6 of 6 | 0 of 18 |
| KFSQQVLYEDRQANSVA | NASQRFS | QQYHRLPLS | GP_Gibbs | 1.8 nM | 6 of 6 | 3 of 18 |
| KVQQSGGMLSRNKNSVA | DASTRES | QQYHRLPLS | GP_Gibbs | 330 pM | 6 of 6 | 0 of 18 |
| MLSSVLHMLGAKKNSIA | DNQLRAD | QQYHRLPLM | En_Gen | 5.4 nM | 6 of 6 | 0 of 18 |
| TIGQTLMYGMRNRSNVA | EVSQRLN | QQYDRLPLM | En_Gen | 9.6 nM | 6 of 6 | 0 of 18 |
| NISQMFFMETKNVNNVA | QTSTREE | QDYHRLPLS | En_HC | 2.1 nM | 6 of 6 | 0 of 18 |
| HMNTADVGVSDHYNSVA | EQRAAHI | QQYFRLPLS | En_Gibbs | 33 nM | 6 of 6 | 2 of 18 |
| KISQVFMMTGKLKNSVA | NAYTRVQ | QQYHRLPLS | En_HC | 16 nM | 4 of 6 | 0 of 18 |
| QLAIDRLQEYKMGDAIA | GKTTRED | QQYARLPLS | En_Gibbs | 1.9 nM | 6 of 6 | 3 of 18 |
| LISSVWDYGSRNYNSVA | QTSTREN | QQYDRLPLE | En_HC | 38 nM | 5 of 6 | 2 of 18 |
| KLSATTEMEHVNRNSVA | ELVTRMK | QQYNRLPLS | En_Gen | 11 nM | 6 of 6 | 2 of 18 |
| KISGQYRYEQLSKNNIA | EAQTRLK | QQYHRLPLS | En_HC | 37 nM | 6 of 6 | 0 of 18 |
| KITQMVTGEMHNKNSIA | QMTTREG | QQYHRLPLS | En_HC | 3.0 nM | 6 of 6 | 1 of 18 |
| KLSGSMLYEQRMLNSVA | QASQRLS | QQYHRLPLS | GP_Gibbs | 1.2 nM | 6 of 6 | 0 of 18 |
| KLSVSYLFEQLEKNSIA | ENSTREE | QHYHRLPLS | En_HC | no signal | 0 of 6 | 1 of 18 |
| QLDWYNTYATASASNIA | DVAQRAN | QQYMRLPLM | En_Gibbs | 390 pM | 6 of 6 | 1 of 18 |
| KIGDTLNQQMTKRNNVA | DLVMREN | QQYFRLPLS | En_Gen | 37 nM | 6 of 6 | 0 of 18 |
| HMSMITLQGMRARNSVA | QMTTREN | QQYDHLPLS | En_Gen | 13 nM | 5 of 6 | 0 of 18 |
| KVQQSVPYEDRNKNSVA | HASTRCS | QDYHRLPLS | GP_Gibbs | 770 pM | 6 of 6 | 0 of 18 |
| KLQQSNLYESRNTNSVA | NASQREQ | QQYHRLPLS | GP_Gibbs | 780 pM | 6 of 6 | 1 of 18 |
| MLTWGDDHETGRQNSIA | HAHERNT | QQYHQLPLI | En_Gibbs | 9.5 nM | 6 of 6 | 4 of 18 |
| LLSGMVEEQLTRQNNIA | EGEFRDM | QQYNRLPLS | En_Gibbs | 22 nM | 2 of 6 | 0 of 18 |

For reference, 9 entries of the list once more:

{"CDR-L1": "KLSMITGHMSVSKNNVA", "CDR-L2": "EMETRAN", "CDR-L3": "QQYDRLPLS", "group": "En_Gen", "Kd (apparent)": "6.8 nM", "replicates with signal": "6 of 6", "control signals": "0 of 18"}
{"CDR-L1": "KLRSVTGTEKVNGNNVA", "CDR-L2": "EMETRER", "CDR-L3": "QQYNRLPLS", "group": "En_Gen", "Kd (apparent)": "3.3 nM", "replicates with signal": "6 of 6", "control signals": "1 of 18"}
{"CDR-L1": "KFMISLEYQMAEQNAIA", "CDR-L2": "HAEISTV", "CDR-L3": "QQYSRLPID", "group": "En_Gibbs", "Kd (apparent)": "no signal", "replicates with signal": "0 of 6", "control signals": "0 of 18"}
{"CDR-L1": "SMHPFDKAIGKGTQNIA", "CDR-L2": "HVSVRAS", "CDR-L3": "QQYARLPLV", "group": "En_Gibbs", "Kd (apparent)": "2.6 nM", "replicates with signal": "6 of 6", "control signals": "3 of 18"}
{"CDR-L1": "TISQVMNTLTRNTNNVA", "CDR-L2": "DLQNRED", "CDR-L3": "QQYFRLPLS", "group": "En_Gen", "Kd (apparent)": "no signal", "replicates with signal": "0 of 6", "control signals": "0 of 18"}
{"CDR-L1": "KLSVSYLFEQLEKNSIA", "CDR-L2": "ENSTREE", "CDR-L3": "QHYHRLPLS", "group": "En_HC", "Kd (apparent)": "no signal", "replicates with signal": "0 of 6", "control signals": "1 of 18"}
{"CDR-L1": "LISSVWDYGSRNYNSVA", "CDR-L2": "QTSTREN", "CDR-L3": "QQYDRLPLE", "group": "En_HC", "Kd (apparent)": "38 nM", "replicates with signal": "5 of 6", "control signals": "2 of 18"}
{"CDR-L1": "LLSGMVEEQLTRQNNIA", "CDR-L2": "EGEFRDM", "CDR-L3": "QQYNRLPLS", "group": "En_Gibbs", "Kd (apparent)": "22 nM", "replicates with signal": "2 of 6", "control signals": "0 of 18"}
{"CDR-L1": "KVQQSVPYEDRNKNSVA", "CDR-L2": "HASTRCS", "CDR-L3": "QDYHRLPLS", "group": "GP_Gibbs", "Kd (apparent)": "770 pM", "replicates with signal": "6 of 6", "control signals": "0 of 18"}

The range of this assay differs from that of the first round, and the authors advise against merging the two.
In the paper, a design with two or fewer of six values counts as a poor binder.
Empty control strains, which show no peptide, gave a signal in 4% of pairings with all light chain designs; the median was 430 nM and 95% of these signals were weaker than 38 nM. No background was subtracted. The control count says in how many pairings with the empty strains this scFv gave a signal.
Of ten entries with the parent sequence, four were seen in most replicates (averages 2.2 nM to 240 nM), three in one and three in none, so single entries are noisy.

From the AlphaSeq antibody data of Li et al. 2023 (doi:10.1038/s41467-023-39022-2), copy in the FLAb collection.